AlphaSeq binding of Ab-95 light chain variants to a spike HR2 peptide

Values reported by Engelhart et al. 2022, doi:10.1038/s41597-022-01779-4 (FLAb copy).

All variants were tested on one target, the spike HR2 peptide PDVDLGDISGINAS (SARS-CoV-2).

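Variants in AAYL52 differ from the parent at up to three CDR positions; double and triple changes were sampled at random. The assay is AlphaSeq: two haploid yeast populations carry antibody and antigen on their surface. After mating in shaken culture at 30 °C for 16 h, diploids were selected and their barcode pairs sequenced. Scores were corrected for input abundance and mapped to Kd with protein pairs of known affinity run in the same pool. Mating was done three times.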

Parent: Ab-95, a human scFv built as VH, the linker GGGGSGGGGSGGGGS, VL. Only the CDRs of the light chain vary.
VH: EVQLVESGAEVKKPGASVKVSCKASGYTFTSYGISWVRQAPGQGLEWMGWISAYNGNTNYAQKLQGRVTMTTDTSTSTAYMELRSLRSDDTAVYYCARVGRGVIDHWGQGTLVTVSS
VL: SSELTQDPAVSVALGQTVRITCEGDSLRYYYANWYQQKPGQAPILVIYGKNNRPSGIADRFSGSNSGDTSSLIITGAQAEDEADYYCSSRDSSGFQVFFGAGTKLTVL

Variants are written as CDR1, CDR2 and CDR3 of the light chain (limits as in the source). Parent: EGDSLRYYYAN, GKNNRPS, SSRDSSGFQVF. The read-out is the apparent dissociation constant on a log10 scale (nM): the lower, the stronger. Averages over replicates are reported, and they cover detected replicates only. Where no diploid with the target was found in that replicate, the entry reads "n.d.": below detection, most likely a poor binder, though not proof of it. Empty control strains, which show no peptide, gave a signal in 28% of pairings with library AAYL52; the median was 3.91 and 95% of these signals were weaker than 2.90. No background was subtracted. For each scFv, signals with the empty controls are counted beside the result, with their mean in brackets.

CDR-L1,CDR-L2,CDR-L3,"replicates, log10 nM",mean log10 Kd (nM),control signals
EGDSLRYYYAA,GQNNRPS,SSRDSSGHQVF,4.95 / n.d. / 4.23,4.59,4 of 9 (4.20)
EGDSLRYYYAT,GKNNRPS,SSRDSSGFKCF,4.36 / n.d. / n.d.,4.36,1 of 9 (3.37)
EGNSLRYYYAN,GKNKRPS,SSRDSSGFQGF,3.78 / 3.45 / n.d.,3.61,2 of 9 (2.95)
EGDSLRYYYAA,GKNNRPL,TSRDSSGFQVF,n.d. / 4.13 / n.d.,4.13,3 of 9 (4.33)
EGDSLRYYYAN,GKNNRPS,SWFDSSTFQVF,4.26 / n.d. / 4.25,4.26,2 of 9 (3.39)
EGDSLRCYYAN,GKNNRPH,SSRDSSGHQVF,4.85 / 2.88 / n.d.,3.87,5 of 9 (3.40)
EGDSLRYYYAN,GKSNRPS,SQRDSSEFQVF,3.25 / 2.98 / 4.01,3.41,4 of 9 (3.73)
EWDSLRYYHAN,GKNNRPS,SSRDSSGFQCF,1.51 / 1.51 / 1.00,1.34,1 of 9 (3.97)
EGDSLRMYYAN,GKNDRPS,SSRDSSGFQDF,n.d. / n.d. / 3.74,3.74,1 of 9 (4.09)
EGDQLRPYYAN,GENNRPS,SSRDSSGFQVF,2.55 / 2.81 / 2.05,2.47,3 of 9 (4.44)
DGDSLRTYYAN,GKNNRAS,SSRDSSGFQVF,1.73 / 1.58 / 1.02,1.44,2 of 9 (4.74)
EGDSLRYYYAS,GKNNRKS,SSRDSSGFQVY,2.75 / 3.39 / 3.40,3.18,3 of 9 (4.29)
EGDSLWYTYAT,GKNNRPS,SSRDSSGFQVF,2.67 / n.d. / n.d.,2.67,1 of 9 (3.29)
EGDSLRYYYAN,MKNQRPS,SSRDSSGWQVF,5.26 / 3.15 / n.d.,4.20,1 of 9 (4.02)
EGDSLFYYYAN,GKNSRPS,SSRDSSGFRVF,4.53 / 3.18 / 3.09,3.60,1 of 9 (4.07)
EGDSLRYYYAN,GENNDPS,SLRDSSGFQVF,3.88 / n.d. / 4.66,4.27,4 of 9 (4.16)
EGDSLRYYYLN,GKVNRPS,SSRDESGFQVF,1.69 / 1.55 / 1.32,1.52,3 of 9 (3.98)
EGDSLRYYYAW,GRNIRPS,SSRDSSGFQVF,3.09 / 4.32 / 3.35,3.59,2 of 9 (4.30)
EGDSLRYYYAN,HKNERPS,SSPDSSGFQVF,n.d. / n.d. / n.d.,n.d.,1 of 9 (5.18)
EGDSLRYYYAN,GKNNRES,SSRASSGFQTF,5.26 / 4.27 / n.d.,4.76,1 of 9 (2.73)
EGDSLRYYYAN,GKYNRPG,SSRDSSGFQAF,4.07 / n.d. / n.d.,4.07,1 of 9 (3.86)
EGDSLRYYYKN,GKNNRPY,SNRDSSGFQVF,n.d. / n.d. / n.d.,n.d.,1 of 9 (2.80)
EPDSERYYYAN,GKNNRPS,SSRDSSGHQVF,4.13 / n.d. / n.d.,4.13,3 of 9 (3.87)
EGDSLRYDYVN,GKWNRPS,SSRDSSGFQVF,3.47 / 3.19 / 4.03,3.56,2 of 9 (3.96)
EGDSLRYYYAN,GKNNRPS,SSMWSSGFQIF,3.77 / n.d. / n.d.,3.77,3 of 9 (4.39)
EGDSLRYAGAN,GKNNRPS,SMRDSSGFQVF,1.61 / 1.54 / 1.16,1.44,2 of 9 (4.74)
EGDSLRYYYAT,GKNNRPP,SSRDSSGFQVF,3.72 / n.d. / n.d.,3.72,6 of 9 (3.66)
EGDSLRYYYAN,GKNNRPP,SSRASSGSQVF,3.07 / 3.65 / 2.17,2.96,3 of 9 (3.67)
EGDSLRYYYAN,GKMNRPS,QSRDWSGFQVF,n.d. / n.d. / n.d.,n.d.,0 of 9
EEDSLRYYYAN,YKPNRPS,SSRDSSGFQVF,3.67 / n.d. / n.d.,3.67,2 of 9 (3.76)
EGDSLRYEYAN,GKNNRPS,SNRDSSVFQVF,2.16 / 1.49 / 1.70,1.79,5 of 9 (4.55)
YGDSLRYYYAN,GKNNRGQ,SSRDSSGFQVF,2.44 / 2.33 / 1.58,2.12,4 of 9 (4.08)
EGEQLRYYYAN,GKNNRPS,SKRDSSGFQVF,4.77 / n.d. / n.d.,4.77,2 of 9 (4.00)
EGDSLRYYYAN,GKNNRPS,SSLQSSGLQVF,n.d. / n.d. / n.d.,n.d.,1 of 9 (4.08)
EGDSLRYYYGN,GKNNRIS,SSRDSSGFQVF,n.d. / 4.66 / n.d.,4.66,3 of 9 (3.79)
IGDSLRYYYAN,GINNRPS,ASRDSSGFQVF,3.08 / 2.94 / 3.25,3.09,1 of 9 (3.45)
EGDSIRYYYAD,GKNNRPM,SSRDSSGFQVF,3.45 / n.d. / 3.65,3.55,1 of 9 (5.00)
EGDSLRYKYAN,GKQNRPS,SSRDSSGFQVH,2.92 / 2.79 / 1.92,2.54,2 of 9 (4.23)
EHDSLTYYYAN,GKNNRPS,SSRDSSGFQVH,3.29 / 3.42 / 2.56,3.09,4 of 9 (3.62)
EGDSLRYYYAY,GKKNFPS,SSRDSSGFQVF,n.d. / n.d. / n.d.,n.d.,1 of 9 (3.99)